Earlier results in patent US20150057375A1, “USE OF IMPROVED N-ALKYL PYRROLIDONE SOLVENT” (TAMINCO, priority 2012, published 2015).

Details: EU classification / screening test; cited from earlier work

For `CCN1CCCC1=O` [NEP, N-ethyl-2-pyrrolidone], the Reprotoxicity is given as “listed as reprotoxic”.
